Several values for one entry are separate records, joined by “and”; a condition that tells them apart may be missing. Equal entries are not always repeated.
How the values were obtained:
[1] = cited from earlier work
[2] = Maximum calcium in irrigation water together with phosphate fertilizer (solubility threshold); assay type: physicochemical; settings: water pH 6.5
Text: These fertilizers are not slug fed simultaneously because the slug-fed calcium concentration is vastly higher than the threshold level beyond which precipitation will occur when added together with phosphate. In more detail, when added as shown above, namely 17.5 lbs/acre calcium (as Ca) with a water usage of 0.0133 ac-ft/acre (on both March 1 and July 1), the calcium addition rate is 487.1 ppm Ca+2 or 1218 ppm (as CaCO3). (Using the same calculation method, the addition rate of 35.00 lbs/acre phosphate (as P2O5) on March, 30 and September 15 is 1304 ppm PO4-3.) The maximum amount of calcium that can be present in the irrigation water concomitantly with that phosphate-based fertilizer, at a water pH of 6.5, is 4.4 ppm calcium (as CaCO3).
When simultaneously feeding both a calcium and the above-indicated amount of phosphate crop-quality enhancer at a water pH of 6.5 using the method and system of the present invention, the maximum amount of calcium that can be present in the irrigation water is 94.8 ppm calcium (as Ca) for 14.81 ppm PO4-3 and 78.2 ppm calcium (as Ca) for 19.75 ppm PO4-3. Exceeding that maximum will, due to calcium/phosphate interaction and/or precipitation, will lead to plugging of the irrigation system. As indicated above, the calcium (as Ca) concentration in the irrigation water is 3.08 ppm calcium (as Ca) during the continuous fertigation process from March 1 through May 31 and is 6.13 ppm calcium (as Ca) during the continuous fertigation process from September 1 through October 31. (There is no addition of phosphate June through August.) The calcium-concentration threshold above which there is a irrigation-system plugging problem, is thirty-six times higher than the highest calcium concentration used in this projection.
For the first injection of a phosphate fertilizer the maximum amount of calcium that can be present in the irrigation water concomitantly with that phosphate-based fertilizer, at a water pH of 6.5, is 2.5 ppm calcium (as Ca). For the second injection of a phosphate fertilizer the maximum amount of calcium that can be present in the irrigation water concomitantly with that phosphate-based fertilizer, at a water pH of 6.5, is 4.2 ppm calcium (as Ca). The 695.9 ppm (as Ca) addition rate is about 278 times higher than that threshold for the first injection of phosphate fertilizer. The 278.4 ppm (as Ca) addition rate is about 66.3 times higher than that threshold for the second injection of phosphate fertilizer.
When simultaneously feeding both a calcium and the above-indicated amount of phosphate crop-quality enhancer at a water pH of 6.5 using the method and system of the present invention, the maximum amount of calcium that can be present in the irrigation water is 124 ppm calcium (as Ca). Exceeding that maximum will, due to calcium/phosphate interaction and/or precipitation, lead to plugging of the irrigation system. As indicated above, the calcium (as Ca) concentration in the irrigation water is 5.54 ppm calcium (as Ca) during the continuous fertigation process from March 1 through May 31 and is 7.38 ppm calcium (as Ca) during the continuous fertigation process from September 1 through October 31. […]

**Q.** For `[Ca+2]` [Ca^+2], which “Solubility with anion CO3^−2” value ([1]; anion CO3^−2) is on record?
**A.** I (I means insoluble (<20 ppm))

**Q.** And the “Solubility with anion Cl” value ([1]; anion Cl)?
**A.** S (S means soluble (over 5,000 ppm))

**Q.** And the “Solubility with anion HCO3^−” value ([1]; anion HCO3^−)?
**A.** SS (SS means slightly soluble (2,000 to 5,000 ppm))

**Q.** And the “Solubility with anion NO3^−” value ([1]; anion NO3^−)?
**A.** S (S means soluble (over 5,000 ppm))

**Q.** What about the “Solubility with anion OH^−” value ([1]; anion OH^−) of the same molecule?
**A.** VSS (VSS means very slightly soluble (20-2,000 ppm))

**Q.** And the “Solubility with anion PO4^−3” value ([1]; anion PO4^−3)?
**A.** I (I means insoluble (<20 ppm))

**Q.** And the “Solubility with anion SO4^−2” value ([1]; anion SO4^−2)?
**A.** VSS (VSS means very slightly soluble (20-2,000 ppm))

**Q.** Which “maximum amount of calcium that can be present in the irrigation water” value ([2]; 9.88 ppm PO4-3 (Example 5)) does the source give for `[Ca+2]` [calcium] here?
**A.** 124 ppm calcium (as Ca) and 124.1 ppm calcium (as Ca)

**Q.** What about the “maximum amount of calcium that can be present in the irrigation water” value ([2]; 14.81 ppm PO4-3 (Example 2)) of the same molecule?
**A.** 94.8 ppm calcium (as Ca)

**Q.** What about the “maximum amount of calcium that can be present in the irrigation water” value ([2]; 19.75 ppm PO4-3 (Example 2)) of the same molecule?
**A.** 78.2 ppm calcium (as Ca)

**Q.** What about the “maximum amount of calcium that can be present in the irrigation water concomitantly with phosphate-based fertilizer” value ([2]; 1304 ppm PO4-3 (Comparative Example B slug feed)) of the same molecule?
**A.** 4.4 ppm calcium (as CaCO3)

**Q.** What about the “maximum amount of calcium that can be present in the irrigation water concomitantly with phosphate-based fertilizer” value ([2]; second injection of phosphate fertilizer, October 30 (Comparative Example E)) of the same molecule?
**A.** 4.2 ppm calcium (as Ca) and 7.38 ppm calcium (as Ca)

Reference: US8986418B1, “Method and system for agricultural fertigation” (priority 2008, dated 2015)
